Results reported in patent US20180207148A1 (priority 2015, published 2018).

Legend:
[1] = Paclitaxel pharmacokinetics in dogs after single oral dose with Compound A; conditions: dog, in vivo
in vivo = conditions: dog, po, 6 mg/kg, dogs, Fasted, paclitaxel 6 mg/kg with Compound A 3 mg/kg, single oral dose
clinical = conditions: human, in vivo, po
[2] = Paclitaxel pharmacokinetics in rats after single oral dose with Compound A; conditions: rat, in vivo

What does the source list for `CC(=O)O[C@H]1C(=O)[C@@]2(C)[C@H]([C@H](OC(=O)c3ccccc3)[C@]3(O)C[C@H](OC(=O)[C@H](O)[C@@H](NC(=O)c4ccccc4)c4ccccc4)C(C)=C1C3(C)C)[C@]1(OC(C)=O)CO[C@@H]1C[C@@H]2O` [Paclitaxel, 5,20-Epoxy-1,2,4,7,10-13-hexahydroxytax-11-en-9-one-4,10-diacetate 2-benzoate 13-ester with (2R,3S)—N-benzoyl-3-phenylisoserine]?
Cmax ([1]; 2 mg/kg): 128 ng/mL; half-life ([1]; 2 mg/kg): 444 min; Cmax ([1]; 4 mg/kg): 661 ng/mL; half-life ([1]; 4 mg/kg): 486 min; Cmax ([1]; 6 mg/kg): 1110 ng/mL; half-life ([1]; 6 mg/kg): 438 min; Cmax (in vivo): 684 ± 175 ng/mL; Cmax (clinical; 120 mg/m2): 655 ng/mL; Cmax (clinical; 360 mg/m2): 655 ng/mL; Cmax (clinical; 420 mg/m2): 708 ng/mL; half-life ([2]; 5 mg/kg): 492 min; half-life ([2]; 10 mg/kg): 522 min; half-life ([2]; 20 mg/kg): 450 min
